Read-outs that look alike come from different tables or passages of the source. Marks after values point to notes of the source that are not given here.

Protein sequences, listed by entry. Tags and fused reporters are not part of them.
UniProt P60484, whole entry: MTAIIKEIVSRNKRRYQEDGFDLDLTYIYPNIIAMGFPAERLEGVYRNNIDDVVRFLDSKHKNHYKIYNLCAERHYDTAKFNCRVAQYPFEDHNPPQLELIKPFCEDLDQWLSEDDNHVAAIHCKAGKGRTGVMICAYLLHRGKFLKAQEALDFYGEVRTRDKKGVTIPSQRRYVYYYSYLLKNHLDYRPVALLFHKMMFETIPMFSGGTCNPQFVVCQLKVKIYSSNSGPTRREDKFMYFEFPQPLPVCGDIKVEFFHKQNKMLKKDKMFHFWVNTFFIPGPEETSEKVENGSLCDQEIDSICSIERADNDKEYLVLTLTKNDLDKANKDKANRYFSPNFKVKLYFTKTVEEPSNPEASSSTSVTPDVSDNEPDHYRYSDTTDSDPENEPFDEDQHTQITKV
UniProt P18031, whole entry: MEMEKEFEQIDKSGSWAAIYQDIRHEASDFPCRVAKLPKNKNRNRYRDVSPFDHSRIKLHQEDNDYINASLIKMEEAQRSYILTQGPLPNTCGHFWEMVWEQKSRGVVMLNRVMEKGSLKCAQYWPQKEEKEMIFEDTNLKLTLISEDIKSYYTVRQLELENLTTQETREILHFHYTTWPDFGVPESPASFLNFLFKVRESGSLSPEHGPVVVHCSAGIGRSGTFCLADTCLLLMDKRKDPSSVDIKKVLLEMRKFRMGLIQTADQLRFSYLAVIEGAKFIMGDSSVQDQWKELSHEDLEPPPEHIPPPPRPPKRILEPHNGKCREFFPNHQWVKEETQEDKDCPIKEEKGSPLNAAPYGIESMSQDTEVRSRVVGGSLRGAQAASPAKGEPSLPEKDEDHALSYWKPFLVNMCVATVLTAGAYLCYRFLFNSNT

The record followed here is US20070203098A1, “Pten Inhibitors” (priority 2004, published 2007).

The target of experiment [1] is T1, PTEN (Homo sapiens, UniProt P60484). Put plainly: PTEN Inhibition Assay: General Screening. Type of experiment: biochemical.
For experiment [2], the target named is T1, PTEN. Briefly: PTEN Inhibition Assay: IC50 Determinations. The experiment is classed as biochemical.
Experiment [3] deals with PTP1B (Homo sapiens, UniProt P18031). Put plainly: PTP1B Inhibition Assay: IC50 Determinations. The experiment is classed as biochemical. As to conditions: read-out: PTP1B IC50; Table 29.
Experiment [4] relates to mouse aortic ring. Put plainly: In Vitro Aortic Ring Angiogenesis Assay. As to conditions: 5 μM; 5 days. The experiment is classed as cell-based.
For experiment [5], the system named is MEF PTEN wt. Put plainly: Migration Assay, MEF PTEN wt. Type of experiment: cell-based, mouse. As to conditions: Table 4.
In experiment [6] the test system is MEF PTEN null. Put plainly: Migration Assay, MEF PTEN null. Type of experiment: cell-based, mouse. The settings on record: Table 4.
Experiment [7] relates to HBEC (Human Brain Endothelial Cells). Briefly: Wound Healing Assay. Type of experiment: cell-based.
The mark [8] stands for this setting: read-out: PTEN Inhibition IC50, Table 1.

In the case of `COc1cccc(OCC(=O)Nc2ccccc2N)c1`, the “% Inhibition @ 250 uM” value in experiment [1] (Table 20) was 57-96%. Also, in experiment [2] (read-out: PTEN IC50, Table 29), the half-inhibitory concentration (IC50) came out at 220000 nM.

As for `O=C(Nc1ccc2c(c1)C(=O)C(=O)c1ccccc1-2)c1ccccc1`, the “% Inhibition @ 250 uM” value in experiment [1] (Table 26 phenanthrene diones) is reported as 99.6%. The IC50 in experiment [2] (read-out: PTEN IC50, Table 29) came to 292 nM; in experiment [2] (setting [8]), 292 nM; in experiment [3] it was 558 nM.

As for `O=C1C(=O)c2cc(NS(=O)(=O)c3ccccc3)ccc2-c2ccccc21`, the “% Inhibition @ 250 uM” value in experiment [1] (Table 26 phenanthrene diones) was found to be 98.9%. Moreover, the IC50 is 221 to 297 nM in experiment [2] (read-out: PTEN IC50, Table 29); 297 nM in experiment [2] (setting [8]); 205 nM in experiment [3]. In addition, the “Branch (% of control)” value in experiment [4] is given as 94-330 % of control. Besides, in experiment [4], the “Stem (% of control)” value is recorded as 100-367 % of control. For the same molecule, the “migration number, Average” value in experiment [5] (125 uM) is on record as 28.50; in experiment [5] (250 uM) it was 17.50; in experiment [6] (125 uM), 36.80; in experiment [6] (250 uM), 38.10. Further, the “distance the cells have grown out” value in experiment [7] (10 nM, 2 hrs) is reported as 0.03667 millimeters; in experiment [7] (10 nM, 4 hrs), 0.05667 millimeters; in experiment [7] (10 nM, 6 hrs) it was 0.07167 millimeters; in experiment [7] (10 nM, 24 hrs) it was 0.2133 millimeters; in experiment [7] (50 nM, 2 hrs) it was 0.03667 millimeters; in experiment [7] (50 nM, 4 hrs), 0.05667 millimeters. Also, the “distance the cells have grown out” value in experiment [7] (50 nM, 6 hrs) is on record as 0.07667 millimeters; in experiment [7] (50 nM, 24 hrs) it was 0.2283 millimeters; in experiment [7] (250 nM, 2 hrs), 0.02833 millimeters; in experiment [7] (250 nM, 4 hrs), 0.05333* millimeters; in experiment [7] (250 nM, 6 hrs), 0.075* millimeters; in experiment [7] (250 nM, 24 hrs), 0.2217 millimeters. Besides, the “distance the cells have grown out” value in experiment [7] (1000 nM, 2 hrs) was 0.02333* millimeters; in experiment [7] (1000 nM, 4 hrs) it was 0.03333* millimeters; in experiment [7] (1000 nM, 6 hrs) it was 0.07 millimeters; in experiment [7] (1000 nM, 24 hrs), 0.1817* millimeters. The “HBEC migration across the wound, in words” value in experiment [7] (relative to no treatment control) is given as “migrate faster”.

`CCOc1cc(C=NNC(=O)c2nnn(-c3nonc3N)c2COc2ccccc2)ccc1OCC(N)=O`: the “% Inhibition at 250 uM” value in experiment [1] (Table 14 triazoles) is 53-85%. Moreover, the half-maximal inhibitory concentration (IC50) in experiment [2] (read-out: PTEN IC50, Table 29) was found to be 135000 nM; in experiment [3] it was 9500 nM.

With `O=C(Nc1ccc2c(c1)C(=O)C(=O)c1ccccc1-2)c1ccc(Br)cc1`, in experiment [1] (Table 26 phenanthrene diones), the “% Inhibition @ 250 uM” value was 96.94%. For the same molecule, the half-inhibitory concentration (IC50) in experiment [3] lay in the range of 1000 to 10000 nM.

With `O=C(CCl)Nc1ccc2c(c1)C(=O)C(=O)N2`, the “% Inhibition @ 250 uM” value in experiment [1] (Table 27 isatins) is 1.1%. Further, the IC50 in experiment [3] was greater than 10000 nM.

In general, IC50 refers to the concentration that inhibits the measured activity by half.
